Assay results taken from ChEMBL document CHEMBL6092210, “Synthesis, in vitro and in vivo biological evaluation of novel dual compounds targeting both acetylcholinesterase and serotonergic 5-HT4 receptors with potential interest in the treatment of Alzheimer's disease” (Eur J Med Chem, 2024).

Sequences of proteins named here, by UniProt entry; tags and fusion partners are left off. A change or cut given only in a name is not applied to a line headed by its entry.
UniProt P22303: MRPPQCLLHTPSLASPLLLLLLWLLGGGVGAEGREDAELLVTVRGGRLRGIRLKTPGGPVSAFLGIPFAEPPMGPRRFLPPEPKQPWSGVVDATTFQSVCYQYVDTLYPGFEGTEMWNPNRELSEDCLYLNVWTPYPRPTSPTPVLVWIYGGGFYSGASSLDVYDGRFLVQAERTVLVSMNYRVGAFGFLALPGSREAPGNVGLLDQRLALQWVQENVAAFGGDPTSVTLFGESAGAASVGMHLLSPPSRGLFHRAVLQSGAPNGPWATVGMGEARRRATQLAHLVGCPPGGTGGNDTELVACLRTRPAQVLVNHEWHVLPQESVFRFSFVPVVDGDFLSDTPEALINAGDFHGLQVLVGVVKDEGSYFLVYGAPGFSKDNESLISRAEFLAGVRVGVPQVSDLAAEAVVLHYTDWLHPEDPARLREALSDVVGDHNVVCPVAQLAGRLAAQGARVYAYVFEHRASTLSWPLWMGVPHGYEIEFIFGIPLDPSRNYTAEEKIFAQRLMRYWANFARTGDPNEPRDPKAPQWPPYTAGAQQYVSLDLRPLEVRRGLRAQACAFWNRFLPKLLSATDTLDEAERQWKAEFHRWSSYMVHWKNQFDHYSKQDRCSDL

Target: Acetylcholinesterase (Homo sapiens, UniProt P22303)
Assay: Inhibition of recombinant human erythrocyte AChE using acetyl-or butyrylthiocholine iodide as substrate preincubated for 5 mins followed by substrate addition and measured every min for 10 mins by Ellman's method
Procedure, shortened: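 AChE from human erythrocytes (0.05 U final) or recombinant AChE (0.025 U final), diluted in 20 mM HEPES pH 8 with 0.1 % Triton X-100, in an Ellman assay. DTNB is 0.3 mM in phosphate buffer pH 7.4 and compound is in DMSO. Enzyme and compound are preincubated 5 min at 25 °C. Reaction starts with 1 mM acetylthiocholine iodide solution.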

SMILES: [2H]C([2H])([2H])Oc1cc(N)c(Cl)cc1C(=O)CCC1CCN(CC2CCCCC2)CC1
- IC50: 22.6 nM
